{
  "source": "patent EP4563146A1",
  "about": "(IRBM S.P.A., priority 2023, dated 2025)",
  "key": {"[1]": {"molecular_target": "DEN2V NS2B-G4SG4-NS3 serine protease (Dengue virus type 2, UniProt Q91H74)", "assay": "DEN2V protease inhibition assay"}, "[2]": {"molecular_target": "DEN1V NS2B-G4SG4NS3 serine protease (Dengue virus type 1, UniProt P17763)", "assay": "DEN1V protease inhibition assay"}, "[3]": {"molecular_target": "DEN3V NS2B-G4SG4NS3 serine protease (Dengue virus type 3, UniProt Q6YMS4)", "assay": "DEN3V protease inhibition assay"}, "[4]": {"molecular_target": "DEN4V NS2B-G4SG4NS3 serine protease (Dengue virus type 4, UniProt P09866)", "assay": "DEN4V protease inhibition assay"}},
  "note": "Like-named read-outs stand apart in the source and are kept apart here.",
  "data": [
    {"smiles": "O=C(Cc1ccccc1)Nc1cc(NC(=O)[N-]c2c[n+](Cc3ccc(CCO)cc3)no2)cc(C(F)(F)F)c1", "note": "[Example 111, (3-(4-(2-Hydroxyethyl)benzyl)-1,2,3-oxadiazol-3-ium-5-yl)((3-(2-phenylacetamido)-5-(trifluoromethyl)phenyl)carbamoyl)amide]", "values": [
      {"measurement": "IC50", "setting": "[1]", "value": "< 100", "unit": "nM"},
      {"measurement": "IC50", "setting": "[2]", "value": "1000 to 20000", "unit": "nM"},
      {"measurement": "IC50", "setting": "[3]", "value": "< 100", "unit": "nM"},
      {"measurement": "IC50", "setting": "[4]", "value": "100 to 1000", "unit": "nM"}
    ]},
    {"smiles": "O=C(Cc1ccccc1)Nc1cc(NC(=O)[N-]c2c[n+](Cc3ccc(CO)cn3)no2)cc(C2CC2)c1", "note": "[Example 129, ((3-Cyclopropyl-5-(2-phenylacetamido)phenyl)-carbamoyl)(3-((5-(hydroxymethyl)pyridin-2-yl)methyl)-1,2,3-oxadiazol-3-ium-5-yl)amide]", "values": [
      {"measurement": "IC50", "setting": "[1]", "value": "< 100", "unit": "nM"},
      {"measurement": "IC50", "setting": "[2]", "value": "1000 to 20000", "unit": "nM"},
      {"measurement": "IC50", "setting": "[3]", "value": "< 100", "unit": "nM"},
      {"measurement": "IC50", "setting": "[4]", "value": "100 to 1000", "unit": "nM"}
    ]},
    {"smiles": "NCc1cccc(C[n+]2cc([N-]C(=O)Nc3cc(NC(=O)Cc4ccccc4)cc(C(F)(F)F)c3)on2)c1", "note": "[Example 108, (3-(3-(Aminomethyl)benzyl)-1,2,3-oxadiazol-3-ium-5-yl)((3-(2-phenylacetamido)-5-(trifluoromethyl)phenyl)carbamoyl)amide]", "values": [
      {"measurement": "IC50", "setting": "[1]", "value": "< 100", "unit": "nM"},
      {"measurement": "IC50", "setting": "[2]", "value": "1000 to 20000", "unit": "nM"},
      {"measurement": "IC50", "setting": "[3]", "value": "100 to 1000", "unit": "nM"},
      {"measurement": "IC50", "setting": "[4]", "value": "1000 to 20000", "unit": "nM"}
    ]},
    {"smiles": "CN(C)[C@H]1CC[C@@H]([n+]2cc([N-]C(=O)Nc3cc(NC(=O)Cc4ccccc4)cc(C(F)(F)F)c3)on2)CC1", "note": "[Example 95, (3-((1S,4S)-4-(Dimethylamino)cyclohexyl)-1,2,3-oxadiazol-3-ium-5-yl)((3-(2-phenylacetamido)-5-(trifluoromethyl)phenyl)-carbamoyl)amide]", "values": [
      {"measurement": "IC50", "setting": "[1]", "value": "< 100", "unit": "nM"},
      {"measurement": "IC50", "setting": "[2]", "value": "1000 to 20000", "unit": "nM"},
      {"measurement": "IC50", "setting": "[3]", "value": "100 to 1000", "unit": "nM"},
      {"measurement": "IC50", "setting": "[4]", "value": "1000 to 20000", "unit": "nM"}
    ]},
    {"smiles": "CN1CCCCC1C[n+]1cc([N-]C(=O)Nc2cc(NC(=O)Cc3ccccc3)cc(C(F)(F)F)c2)on1", "note": "(stereo not shown) [Example 105, (3-((1-Methylpiperidin-2-yl)methyl)-1,2,3-oxadiazol-3-ium-5-yl)((3-(2-phenylacetamido)-5-(trifluoromethyl)phenyl)carbamoyl)amide]", "values": [
      {"measurement": "IC50", "setting": "[1]", "value": "< 100", "unit": "nM"},
      {"measurement": "IC50", "setting": "[2]", "value": "> 20000", "unit": "nM"},
      {"measurement": "IC50", "setting": "[3]", "value": "100 to 1000", "unit": "nM"},
      {"measurement": "IC50", "setting": "[4]", "value": "1000 to 20000", "unit": "nM"}
    ]},
    {"smiles": "O=C(Cc1ccccc1)Nc1cc(NC(=O)[N-]c2c[n+](Cc3ccc(CO)cn3)no2)cc(C(F)(F)F)c1", "note": "[Example 116, (3-((5-(Hydroxymethyl)pyridin-2-yl)methyl)-1,2,3-oxadiazol-3-ium-5-yl)((3-(2-phenylacetamido)-5-(trifluoromethyl)phenyl)carbamoyl)amide]", "values": [
      {"measurement": "IC50", "setting": "[1]", "value": "< 100", "unit": "nM"},
      {"measurement": "IC50", "setting": "[2]", "value": "1000 to 20000", "unit": "nM"},
      {"measurement": "IC50", "setting": "[3]", "value": "100 to 1000", "unit": "nM"},
      {"measurement": "IC50", "setting": "[4]", "value": "100 to 1000", "unit": "nM"}
    ]},
    {"smiles": "CC(=O)NC[C@H]1CC[C@@H]([n+]2cc([N-]C(=O)Nc3cc(NC(=O)Cc4ccccc4)cc(C(F)(F)F)c3)on2)CC1", "note": "[Example 62, (3-((1S,4S)-4-(Acetamidomethyl)cyclohexyl)-1,2,3-oxadiazol-3-ium-5-yl)((3-(2-phenylacetamido)-5-(trifluoromethyl)phenyl)carbamoyl)amide]", "values": [
      {"measurement": "IC50", "setting": "[1]", "value": "< 100", "unit": "nM"},
      {"measurement": "IC50", "setting": "[2]", "value": "> 20000", "unit": "nM"},
      {"measurement": "IC50", "setting": "[3]", "value": "1000 to 20000", "unit": "nM"},
      {"measurement": "IC50", "setting": "[4]", "value": "1000 to 20000", "unit": "nM"}
    ]},
    {"smiles": "CN(C)[C@H]1CC[C@H]([n+]2cc([N-]C(=O)Nc3cc(NC(=O)Cc4ccccc4)cc(C(F)(F)F)c3)on2)CC1", "note": "[Example 96, (3-((1R,4R)-4-(dimethylamino)cyclohexyl)-1,2,3-oxadiazol-3-ium-5-yl)((3-(2-phenylacetamido)-5-(trifluoromethyl)phenyl)-carbamoyl)amide]", "values": [
      {"measurement": "IC50", "setting": "[1]", "value": "< 100", "unit": "nM"},
      {"measurement": "IC50", "setting": "[2]", "value": "1000 to 20000", "unit": "nM"},
      {"measurement": "IC50", "setting": "[3]", "value": "100 to 1000", "unit": "nM"},
      {"measurement": "IC50", "setting": "[4]", "value": "1000 to 20000", "unit": "nM"}
    ]},
    {"smiles": "COc1ncc(-c2ccc(C[n+]3cc([N-]C(=O)Nc4cc(NC(C)=O)cc(C(F)(F)F)c4)on3)cc2)c(C)n1", "note": "[Example 11]", "values": [
      {"measurement": "IC50", "setting": "[1]; read-out: Dengue 2 - NS3 protease", "value": "100 to 1000", "unit": "nM"},
      {"measurement": "IC50", "setting": "[2]; read-out: Dengue 1 - NS3 protease", "value": "> 20000", "unit": "nM"},
      {"measurement": "IC50", "setting": "[3]; read-out: Dengue 3 - NS3 protease", "value": "1000 to 20000", "unit": "nM"},
      {"measurement": "IC50", "setting": "[4]; read-out: Dengue 4 - NS3 protease", "value": "1000 to 20000", "unit": "nM"}
    ]},
    {"smiles": "N[C@H]1CC[C@H]([n+]2cc([N-]C(=O)Nc3cc(NC(=O)Cc4ccccc4)cc(C(F)(F)F)c3)on2)CC1", "note": "[Example 92, (3-((1R,4R)-4-Aminocyclohexyl)-1,2,3-oxadiazol-3-ium-5-yl)((3-(2-phenylacetamido)-5-(trifluoromethyl)phenyl)carbamoyl)amide]", "values": [
      {"measurement": "IC50", "setting": "[1]", "value": "< 100", "unit": "nM"},
      {"measurement": "IC50", "setting": "[2]", "value": "1000 to 20000", "unit": "nM"},
      {"measurement": "IC50", "setting": "[3]", "value": "100 to 1000", "unit": "nM"},
      {"measurement": "IC50", "setting": "[4]", "value": "1000 to 20000", "unit": "nM"}
    ]}
  ]
}
